In data set [1] the test system is SARS-CoV-2.
In data set [2] the test system is SARS-CoV-2. This is another data set of the same source.

For `COc1ccc(C[C@H]2NC[C@H](O)[C@H]2OC(C)=O)cc1` [ANISOMYCIN], in data set [1], the “HeLa-ACE2 SI CC50/CoV-2 EC50” value is 2.85. The “Calu3 SI CC50/CoV-2 EC50” value in data set [2] is 46.98.
